Assay results published in BindingDB's records for 19853328 (Sri Venkateswara University, 2010).

Sequences of proteins named here, by UniProt entry; tags and fusion partners are left off. Residues count along the entry.
UniProt P04762, 2-527 limits assumed: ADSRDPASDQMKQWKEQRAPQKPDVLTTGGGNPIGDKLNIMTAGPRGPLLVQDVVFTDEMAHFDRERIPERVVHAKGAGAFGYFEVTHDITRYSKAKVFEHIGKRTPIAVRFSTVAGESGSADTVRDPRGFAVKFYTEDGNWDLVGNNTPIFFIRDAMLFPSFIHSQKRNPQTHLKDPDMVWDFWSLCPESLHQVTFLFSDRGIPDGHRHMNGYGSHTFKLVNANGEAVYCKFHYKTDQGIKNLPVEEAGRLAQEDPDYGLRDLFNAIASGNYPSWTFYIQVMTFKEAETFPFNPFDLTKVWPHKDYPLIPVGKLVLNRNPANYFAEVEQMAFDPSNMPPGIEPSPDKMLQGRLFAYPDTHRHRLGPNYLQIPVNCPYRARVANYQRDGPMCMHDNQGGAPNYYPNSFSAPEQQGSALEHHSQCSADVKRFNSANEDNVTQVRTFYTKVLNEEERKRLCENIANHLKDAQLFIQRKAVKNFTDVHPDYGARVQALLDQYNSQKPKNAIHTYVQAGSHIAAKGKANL

Target: Catalase (Rattus norvegicus, UniProt P04762)
Test: Inhibition of catalase in Wistar rat brain

SMILES | EC50 [µM]
COc1ccc2c3c1O[C@H]1C[C@@H](OP(=O)(SCCN)N(CCCl)CCCl)C=C[C@@]31CCN(C)C2 (some centres not stated) | 4.83
COc1ccc2c3c1O[C@H]1C[C@@H](OP(=O)(Oc4ccc([N+](=O)[O-])cc4)SCCN)C=C[C@@]31CCN(C)C2 (some centres not stated) | 3.7
